Measured values: patent US20230322822A1, “ARYL PHOSPHOROUS OXIDE COMPOUNDS AND USE THEREOF” (Chengdu Di'ao Jiuhong Pharmaceutical Factory, priority 2020, published 2023)

Amino acid sequences for entries named in this document (tags omitted). Residues count along the entry.
UniProt P00533, 25-1210 C797S limits assumed: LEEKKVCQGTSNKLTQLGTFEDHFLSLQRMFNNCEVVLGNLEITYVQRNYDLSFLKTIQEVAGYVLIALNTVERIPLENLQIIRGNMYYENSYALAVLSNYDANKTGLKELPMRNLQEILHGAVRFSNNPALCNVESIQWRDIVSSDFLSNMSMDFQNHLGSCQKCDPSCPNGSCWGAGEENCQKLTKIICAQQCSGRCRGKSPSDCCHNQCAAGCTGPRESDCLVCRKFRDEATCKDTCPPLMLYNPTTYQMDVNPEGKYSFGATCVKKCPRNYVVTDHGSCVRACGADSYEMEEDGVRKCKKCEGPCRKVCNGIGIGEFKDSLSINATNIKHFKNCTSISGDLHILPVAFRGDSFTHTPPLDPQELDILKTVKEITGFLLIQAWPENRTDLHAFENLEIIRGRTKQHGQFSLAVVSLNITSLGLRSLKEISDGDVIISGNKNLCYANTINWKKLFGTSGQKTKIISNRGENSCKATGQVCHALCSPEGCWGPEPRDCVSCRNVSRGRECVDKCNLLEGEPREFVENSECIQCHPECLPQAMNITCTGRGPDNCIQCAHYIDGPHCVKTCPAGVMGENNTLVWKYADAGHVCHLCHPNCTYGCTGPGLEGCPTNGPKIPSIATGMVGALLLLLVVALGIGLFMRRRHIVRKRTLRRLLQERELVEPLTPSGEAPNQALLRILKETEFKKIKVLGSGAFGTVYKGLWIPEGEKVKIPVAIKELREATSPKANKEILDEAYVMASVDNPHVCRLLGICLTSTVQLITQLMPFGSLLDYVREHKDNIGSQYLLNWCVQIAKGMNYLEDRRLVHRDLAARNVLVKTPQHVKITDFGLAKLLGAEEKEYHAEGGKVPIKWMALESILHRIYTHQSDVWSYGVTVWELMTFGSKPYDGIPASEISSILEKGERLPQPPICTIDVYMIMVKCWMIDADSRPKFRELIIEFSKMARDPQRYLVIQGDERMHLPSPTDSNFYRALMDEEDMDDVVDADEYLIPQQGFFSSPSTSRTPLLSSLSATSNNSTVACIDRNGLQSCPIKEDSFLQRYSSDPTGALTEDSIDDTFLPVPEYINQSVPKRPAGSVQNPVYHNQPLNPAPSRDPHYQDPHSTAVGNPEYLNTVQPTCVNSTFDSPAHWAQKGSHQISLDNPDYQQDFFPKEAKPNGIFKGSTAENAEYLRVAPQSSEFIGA

Target: EGFR-C797S/Del19 (Homo sapiens, UniProt P00533, C797S, form not given)
Assay: Enzymatic activity test (ADP-Glo) EGFR-C797S/Del19
Assay type: biochemical
Conditions: kinase

Row | SMILES | IC50 [nM]
1 | COc1cc(N2CCC(N3CCN(C)CC3)CC2)c(C)cc1Nc1ncc(Br)c(Nc2cc(C)ccc2P(C)(C)=O)n1 [Compound 9] | 41.9
2 | COc1cc(N2CCC(N3CCN(C)CC3)CC2)c(C)cc1Nc1ncc(Br)c(Nc2ccc(C)cc2P(C)(C)=O)n1 [Compound 2] | 13.8
3 | COc1cc(N2CCC(N3CCN(C)CC3)CC2)c(Cl)cc1Nc1ncc(Br)c(Nc2ccc(C)cc2P(C)(C)=O)n1 [Compound 14] | 5.7
4 | COc1cc(N2CCC(N3CCN(C)CC3)CC2)c(C)cc1Nc1ncc(Cl)c(Nc2cccc(C)c2P(C)(C)=O)n1 [Control compound 1, reference compound] | > 250
5 | COc1cc(N2CCC(N3CCN(C)CC3)CC2)c(C)cc1Nc1ncc(Br)c(Nc2ccc(F)cc2P(C)(C)=O)n1 [Compound 11] | 10.7
6 | COc1cc(N2CCC(N3CCN(C)CC3)CC2)c(Br)cc1Nc1ncc(Br)c(Nc2ccc(C)cc2P(C)(C)=O)n1 [Compound 32] | 10.5
7 | COc1cc(N2CCC(N(C)C)CC2)c(C)cc1Nc1ncc(Cl)c(Nc2ccc(C)cc2P(C)(C)=O)n1 [Compound 5] | 73.7
8 | Cc1ccc(Nc2nc(Nc3cc(C)c(N4CCC(N5CCN(C)CC5)CC4)cc3OC(F)F)ncc2Br)c(P(C)(C)=O)c1 [Compound 24] | 41.6
9 | COc1cc(N2CCC(N3CCN(C)CC3)CC2)ccc1Nc1ncc(Cl)c(Nc2ccc(C)cc2P(C)(C)=O)n1 [Control compound 3, reference compound] | > 250
10 | COc1cc(N2CCC(N3CCN(C)CC3)CC2)c(C)cc1Nc1ncc(Cl)c(Nc2ccc(C)cc2P(C)(C)=O)n1 [Compound 1] | 19.8
11 | COc1cc(N2CCC(N3CCN(C)CC3)CC2)c(C)cc1Nc1ncc(Cl)c(Nc2ccccc2P(C)(C)=O)n1 [Control compound 2, reference compound] | > 250
12 | CCc1cc(Nc2ncc(Br)c(Nc3ccc(C)cc3P(C)(C)=O)n2)c(OC)cc1N1CCC(N2CCN(C)CC2)CC1 [Compound 12] | 9.8
